Measured values published in patent US20070086956A1, “Method for accelerating the rate of mucociliary clearance” (BAYER AKTIENGESELLSCHAFT, priority 1998, published 2007).

Columns and labels:
[1] = molecular target: human plasma kallikrein (human) (UniProt P03952); test: enzyme inhibition, human plasma kallikrein 0.2 nM, substrate PFR-AMC
[2] = molecular target: human factor Xa (human) (UniProt P00742); test: enzyme inhibition, factor Xa 0.87 nM, aprotinin at 31 M as printed
[3] = molecular target: human plasmin (human) (UniProt P00747); test: enzyme inhibition, human plasmin 50 pM, substrate GPK-AMC
[4] = molecular target: Factor XIa (human) (UniProt P03951); test: enzyme inhibition, FXIa 0.1 nM, substrate Boc-Glu(OBzl)-Ala-Arg-AMC

“aprotinin (Trasylol®) (from UniProt P00974 36-93)” gave a Ki [1] of 0.023 µM and a % Inhibition [2] of 5%.
Substance “aprotinin (Trasylol®) (from UniProt P00974 36-93) (other; other documents disagree on this pair)” has a Ki [3] of 0.0002 µM and a Ki [4] of 0.27 µM.
